Data from PubChem BioAssay AID540275 (National Center for Advancing Translational Sciences (NCATS), 2011).
This is a selection; strong and weak results do not stand in their true shares. Inconclusive results are not listed. The source made the active and inactive calls. Cut-off read from the data, not from the text of the source: active = activation above about 80%; inconclusive = between about 30% and that limit; inactive = weaker than that.
Note: 0% is about no effect.

The chains behind the UniProt entries cited, without tags or fusion partners.
UniProt Q8NER1, whole entry, looked up: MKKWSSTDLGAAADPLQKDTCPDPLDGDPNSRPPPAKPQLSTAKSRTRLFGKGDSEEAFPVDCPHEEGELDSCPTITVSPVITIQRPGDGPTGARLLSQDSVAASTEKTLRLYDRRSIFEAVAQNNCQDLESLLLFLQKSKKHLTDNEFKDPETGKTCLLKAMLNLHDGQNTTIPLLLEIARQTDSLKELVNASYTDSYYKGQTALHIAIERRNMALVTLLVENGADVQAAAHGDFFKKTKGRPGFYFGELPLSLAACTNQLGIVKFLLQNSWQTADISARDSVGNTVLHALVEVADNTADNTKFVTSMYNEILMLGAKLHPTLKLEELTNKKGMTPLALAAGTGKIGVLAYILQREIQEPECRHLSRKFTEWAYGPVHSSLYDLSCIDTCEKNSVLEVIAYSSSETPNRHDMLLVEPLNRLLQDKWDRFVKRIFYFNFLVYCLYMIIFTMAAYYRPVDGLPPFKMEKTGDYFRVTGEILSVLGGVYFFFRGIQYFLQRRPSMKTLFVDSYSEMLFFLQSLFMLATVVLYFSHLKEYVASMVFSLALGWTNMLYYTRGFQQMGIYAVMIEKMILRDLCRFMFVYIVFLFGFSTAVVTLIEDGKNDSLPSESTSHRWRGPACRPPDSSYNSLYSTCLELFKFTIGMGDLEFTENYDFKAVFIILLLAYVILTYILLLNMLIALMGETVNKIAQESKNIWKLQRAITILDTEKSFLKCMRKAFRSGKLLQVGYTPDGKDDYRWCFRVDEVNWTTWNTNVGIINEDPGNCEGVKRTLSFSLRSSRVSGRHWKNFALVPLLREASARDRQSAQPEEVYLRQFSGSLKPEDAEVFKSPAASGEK

These compounds were tested against Transient receptor potential cation channel subfamily V member 1 (Homo sapiens) (UniProt Q8NER1) (assay: HTS Assay for Compounds that Act as Agonists of the Vanilloid Receptor 1). Conditions: TRPV1-expressing cells, Fluo-8 calcium influx, agonist mode; at 8.33 µM; active compounds read high.
Excerpt: The transient receptor potential ion channel, family V, number 1, (TRPV1) is one of the most important molecular transducers of painful stimuli and a potential target for analgesic drug development. Although recent clinical trials with orthosteric antagonists have not produced a successful drug because of a hyperthermia side effect and their tendency to block thermal noxious pain, this ion channel is undeniably well placed in the pain pathway, and the idea of blocking pain signals before they enter the CNS is an excellent concept and of proven efficacy when TRPV1 agonists are used. We propose a new approach involving allosteric modulation to impose an activity-dependent constraint within the context of inflammation and tissue damage that would alter the responsiveness of the channel in a way that an orthosteric vanilloid antagonist cannot achieve. We believe that the allosteric modulator approach has not been explored for this target. The main goal of this proposal is to identify additional, new, potent allosteric modulators of TRPV1 that can be used to investigate TRPV1 function. Our recent report provides evidence of proof of concept, but the compounds are just at the edge of utility in terms of potency. […] The question of whether they can be used as analgesic agents is complex, but if suitable compounds are identified then testing for analgesic properties will be conducted. NIH Chemical Genomics Center [NCGC] NIH Molecular Libraries Probe Centers Network [MLPCN] MLPCN Grant: MH089480-1A1 Assay Submitter (PI): Michael Iadarola, National Institute of Dental and Cranofacial Research
Upon TRPV1 activation in TRPV1 cells, the channel opens and extracellular cations flow through the channel into the cytosol. A calcium binding dye (Fluo-8) becomes fluorescent when bound to calcium. This dye is pre-loaded into cells and is used as a marker for calcium influx. The amount of accumulated calcium is precisely quantified using the FDSS kinetic reader and the calcium dye. For the HTS assay, freshly prepared cells are plated at a density of 2000/well in 3 ul medium in 1536-well plates and cultured overnight at 35.5C. Cells will be loaded with 1 ul of the homogeneous calcium dye (ABD Bioquest) at room temperature for 40 to 90 minutes. Plates will be loaded into the FDSS kinetic reader and a 1 sec / cycle for 10 second baseline signal will be measured. Compound library will then be added with a pintool at 23 nl and measured kinetically for 3 minutes. This portion of the read is considered the agonist portion of the screen. Following the 3 minutes of incubation, an on board pipettor will deliver 1 ul of capsaicin for a final concentration equal to the EC20. Signal will be measured kinetically for an additional 2 minutes. This portion of the read is considered the allosteric enhancer portion of the screen. The FDSS reader has a standard filter set capable of measuring calcium bound Fluo-8 (ex=480 and em=520 nm).
In the case of `CCC1=CC2Cc3nc4ccc(Cl)cc4c(N)c3C(C1)C2` (stereo not given), the activation is reported as inactive: -1.88%. For `CCOP(=O)(Nc1ccc(C)cn1)OCC`, the activation was inactive: -4.88%. `CC(C)/C=N\N=C(\N)N[N+](=O)[O-]` was tested, and the activation was inactive: -0.875%. In the case of `CN(C(=O)Cc1ccc(Cl)c(Cl)c1)[C@@H]1CCCC[C@H]1N1CCCC1`, the activation is reported as inactive: 4.55%. `O=[As](O)(c1ccccc1Br)c1ccccc1Br` was tested, and the activation was inactive: -1.8%. With `COc1ccccc1CNC(=O)COC(=O)C(O)(c1ccccc1)c1ccccc1` the activation was inactive: 5.19%. With `CN(C)C1(CNC(=O)c2ccc(S(C)(=O)=O)cc2)CCCCC1` the activation was inactive: 3.55%. In the case of `O=C(/C=C/c1ccccc1)OC1CN2CCC1CC2` (stereo not given), the activation is reported as inactive: 4.21%. In the case of `Cc1ccc(C(=O)OC2CN3CCC2CC3)cc1` (stereo not given), the activation is reported as inactive: -2.77%. With `Cc1nn(-c2ccccc2)c2c1P(=O)(N1CCOCC1)N(C)C(c1ccccc1)=N2` (stereo not given) the activation was inactive: 1.33%. In the case of `Nc1cccc([As](=O)(O)c2ccccc2)c1`, the activation is reported as inactive: 0.596%. For `Cc1ccc(OCC(=O)OC2CN3CCC2CC3)cc1` (stereo not given), the activation was inactive: -0.178%. In the case of `O=[As](O)(c1cccs1)c1cccs1`, the activation is reported as inactive: -3.22%. In the case of `O=P1(Nc2ccc(Br)cn2)COc2ccccc2OC1`, the activation is reported as inactive: 5.6%. `NS(=O)(=O)c1cccc(NC(=O)COC(=O)C(O)(c2ccccc2)c2ccccc2)c1` was tested, and the activation was inactive: 4.6%. `O=P1(Nc2ncccn2)COc2ccccc2OC1` was tested, and the activation was inactive: -6.56%. `C[C@H]1OP(=O)(Oc2ccccc2)[C@H](O)[C@H](O)[C@H]1N=[N+]=[N-]` (stereo not given in full) was tested, and the activation was inactive: -0.232%. In the case of `O=P(Nc1nc2ccccc2s1)(c1ccccc1)c1ccccc1`, the activation is reported as inactive: 28.6%. `O=P(Nc1ccccn1)(c1ccc(Br)cc1)c1ccc(Br)cc1` was tested, and the activation was inactive: 2.2%. For `CN(C)C1(CNC(=O)c2ccc(Cl)c(S(N)(=O)=O)c2)CCCCC1`, the activation was inactive: -1.54%. With `O=C(OC1CN2CCC1CC2)c1cccc(Cl)c1` (stereo not given) the activation was inactive: -4.62%. With `C(Cc1nn[nH]n1)Cc1nn[nH]n1` the activation was inactive: -3.91%. `Nc1ccc([As](=O)(O)c2ccc([N+](=O)[O-])cc2)cc1` was tested, and the activation was inactive: -6.19%. With `O=[As](O)(c1ccccc1)c1ccc(O)cc1` the activation was inactive: 2.45%. `O=[N+]([O-])c1ccc(O)c(/C=N/Nc2ccc([N+](=O)[O-])cc2[N+](=O)[O-])c1` was tested, and the activation was inactive: 1.9%. `CC(=O)NC(SC(=S)N(C)C)C(Cl)(Cl)Cl` (stereo not given) was tested, and the activation was inactive: -0.342%. `O=[N+]([O-])c1ncn(CCn2cnc([N+](=O)[O-])n2)n1` was tested, and the activation was inactive: -2.36%. With `c1nnnn1CCn1cnnn1` the activation was inactive: -0.705%. In the case of `CC(C)C(=O)NC(Sc1ccccc1)C(Cl)(Cl)Cl` (stereo not given), the activation is reported as inactive: 4.55%. `O=P(Nc1nccs1)(c1ccccc1)c1ccccc1` was tested, and the activation was inactive: 2.34%. With `CC(C)(C)C(=O)NC(Sc1ccccc1)C(Cl)(Cl)Cl` (stereo not given) the activation was inactive: 4.75%. `CCOc1ccc(C2=NCC(CBr)S2)cc1` (stereo not given) was tested, and the activation was inactive: 1.42%. With `O=P1(Nc2nc3ccc(Cl)cc3s2)COc2ccccc2O1` (stereo not given) the activation was inactive: -8.15%. For `CC(=O)Nc1ccc(Oc2c([N+](=O)[O-])cc([N+](=O)[O-])cc2[N+](=O)[O-])cc1`, the activation was inactive: 3.44%. For `CC(=O)Nc1ccc([As](=O)(O)O)c(O)c1`, the activation was inactive: -5.53%. `C[C@H]1OP(=O)(Oc2ccccc2)C[C@@H]2O[C@@H]21` (stereo not given in full) was tested, and the activation was inactive: -3.15%. In the case of `C[C@@H]1C=CCP(=O)(Oc2ccccc2)O1` (stereo not given in full), the activation is reported as inactive: 0.692%. In the case of `Cc1ccccc1CN(C)C(=O)COC(=O)C(O)(c1ccccc1)c1ccccc1`, the activation is reported as inactive: 3.84%. In the case of `CC(=O)c1ccc(N2CC2c2ccncc2)cc1` (stereo not given), the activation is reported as inactive: -3.51%. With `CCOC(=O)NC(Sc1ccccc1)C(Cl)(Cl)Cl` (stereo not given) the activation was inactive: -0.532%. For `c1ccc(-c2nn[nH]n2)c(-c2nn[nH]n2)c1`, the activation was inactive: 5.15%. For `CCNC(=S)/N=C(\N)N[N+](=O)[O-]`, the activation was inactive: 0.394%. `O=C(NC1CCS(=O)(=O)C1)NP(=S)(Oc1ccccc1)Oc1ccccc1` (stereo not given) was tested, and the activation was inactive: 3.94%. With `O=c1c2cc([N+](=O)[O-])ccc2[nH]c2c([N+](=O)[O-])cc([N+](=O)[O-])cc12` the activation was inactive: 8.43%. `CN(C)C(=O)Oc1noc2ccccc12` was tested, and the activation was inactive: 3.56%. For `Cc1ccccc1OP(=O)(Nc1ccccn1)Oc1ccccc1C`, the activation was inactive: 22%. `CCC(=O)N1C2C3N(C(=O)CC)C1C1N(C(=O)CC)C(C(N1C(=O)CC)N3C(=O)CC)N2C(=O)CC` was tested, and the activation was inactive: -1.02%. In the case of `O=C(OC1CN2CCC1CC2)c1ccccc1` (stereo not given), the activation is reported as inactive: -2.08%. `CC(=O)NC(SC(=S)N(CC(C)C)CC(C)C)C(Cl)(Cl)Cl` (stereo not given) was tested, and the activation was inactive: 1.01%. `COC(=O)c1cc2c(s1)N=C(c1ccccc1)N(C)P2(=O)N1CCOCC1` (stereo not given) was tested, and the activation was inactive: -1.14%.
